The results in this text go back to patent publication US6465479B1, “Pyridomorphinans and use thereof” (Southern Research Institute, priority 1999, dated 2002).

Chains of the proteins cited; added tags and fusions are not shown. Lines headed by an entry give the natural chain unless they say otherwise; changes in a name come on top.
UniProt P32300, whole entry: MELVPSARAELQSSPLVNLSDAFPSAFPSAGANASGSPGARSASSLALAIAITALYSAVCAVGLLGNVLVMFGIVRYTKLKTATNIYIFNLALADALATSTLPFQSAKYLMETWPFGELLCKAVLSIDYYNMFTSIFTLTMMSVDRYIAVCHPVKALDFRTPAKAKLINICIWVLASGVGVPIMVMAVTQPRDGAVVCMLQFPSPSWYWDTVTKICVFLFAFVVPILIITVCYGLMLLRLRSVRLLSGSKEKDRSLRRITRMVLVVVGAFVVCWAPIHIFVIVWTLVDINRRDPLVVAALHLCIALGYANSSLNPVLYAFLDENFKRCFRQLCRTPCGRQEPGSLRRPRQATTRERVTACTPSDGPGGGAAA

Structures are written as SMILES.

The test deals with T1, δ opioid receptor (DPDPE) in the MVD preparation (Mus musculus, UniProt P32300).
T1 construct: electrically stimulated mouse vas deferens (MVD) and guinea pig ileum (GPI) smooth muscle preparations; from tissue; host or cells: mouse vas deferens
The experiment in a line: Opioid antagonist potency against DPDPE (δ) in electrically stimulated mouse vas deferens (MVD). The format is cell-based.

What is called Kb is the affinity of an antagonist, worked out from how it opposes an agonist. The low end stands for higher antagonist affinity, the high end for lower antagonist affinity. `Oc1ccc2c3c1O[C@H]1c4ncc(-c5ccc(Cl)cc5)cc4C[C@@]4(O)[C@@H](C2)N(CC2CC2)CC[C@]314` [Compound 6d, 5′-(4-Chlorophenyl)-17-(Cyclopropylmethyl)-6,7-didehydro-3,14-dihydroxy-4,5α-epoxypyrido[2′3′:6,7]morphinan] showed an antagonist equilibrium constant (Kb) of 0.66 nM.
